In PubChem BioAssay (NCI):
Several values for one entry are separate records, joined by “and”; a condition that tells them apart may be missing. Equal entries are not always repeated. The entries are a selection whose mix differs from that of the whole data set.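 Assay: single dose, 48 h. Readout: percent growth (0 = no net growth; negative = cell death). Active: <10.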 Activity calls are given as the source filed them.

Assays:
Test in all cases: NCI-60 one-dose screen, 48 h (100 = growth as untreated, 0 = no growth, -100 = all killed)
Conditions in all cases: 10 µM
[1] = tested on: MOLT-4 leukemia
[2] = tested on: SR leukemia
[3] = tested on: RPMI-8226 leukemia
[4] = tested on: OVCAR-8 ovarian
[5] = tested on: OVCAR-5 ovarian
[6] = tested on: OVCAR-4 ovarian
[7] = tested on: SK-OV-3 ovarian
[8] = tested on: IGROV1 ovarian
[9] = tested on: OVCAR-3 ovarian
[10] = tested on: HS 578T breast

Row | SMILES | growth [1] | growth [2] | growth [3] | growth [4] | growth [5] | growth [6] | growth [7] | growth [8] | growth [9] | growth [10]
1 | O=[N+]([O-])c1cc([N+](=O)[O-])c(O)c([N+](=O)[O-])c1.c1ccnnc1 | inactive: 97.5% | inactive: 99.6% | inactive: 104% | inactive: 100% | inactive: 94.2% | inactive: 101% | inactive: 112% | inactive: 98.9% | inactive: 116% | –
2 | NN/C(N)=N/[N+](=O)[O-] | inactive: 96.1% | inactive: 97.3% | inactive: 115% | inactive: 108% | inactive: 102% | inactive: 131% | inactive: 105% | inactive: 103% | inactive: 121% | –
3 | CCN(C)CC.O=[N+]([O-])c1cc([N+](=O)[O-])c(O)c([N+](=O)[O-])c1 | inactive: 91% | inactive: 106% | inactive: 97.2% | inactive: 115% | inactive: 105% | inactive: 104% | inactive: 94.1% | inactive: 98.9% | inactive: 111% | inactive: 96.7%
4 | Clc1ccccc1SCCBr | inactive: 112% | inactive: 95.2% | inactive: 99.9% | inactive: 101% | inactive: 108% | inactive: 102% | inactive: 109% | inactive: 106% | inactive: 98.6% | inactive: 106%
5 | CC[N+]([O-])(CC)Cc1ccccc1.O=[N+]([O-])c1cc([N+](=O)[O-])c(S(=O)(=O)O)c([N+](=O)[O-])c1 | inactive: 101% | inactive: 94.7% | inactive: 97.3% | inactive: 99.8% | inactive: 98.5% | inactive: 98.9% | inactive: 112% | inactive: 108% | inactive: 102% | inactive: 96.8%
6 | O=C(OCCN1CCCCCCCC1)C(O)(c1ccccc1)c1ccccc1 | inactive: 104% | inactive: 121% | inactive: 102% | inactive: 101% | inactive: 91% | inactive: 102% | inactive: 101% | inactive: 104% | inactive: 108% | inactive: 110%
7 | O=[N+]([O-])c1cc([N+](=O)[O-])c(NCCO)c([N+](=O)[O-])c1 | inactive: 85.8% | inactive: 65.6% | inactive: 96.8% | inactive: 82.8% | inactive: 104% | inactive: 78.6% | inactive: 98.1% | inactive: 88.8% | inactive: 88.6% | inactive: 120%
8 | CC(C)N(CCCl)C(C)C | inactive: 125% | inactive: 120% | inactive: 99.3% | inactive: 98.5% | inactive: 107% | inactive: 113% | inactive: 101% | inactive: 134% | inactive: 111% | inactive: 101%
9 | O=[N+]([O-])c1cc([N+](=O)[O-])c(Nc2nnnn2CCO)c([N+](=O)[O-])c1 | inactive: 84.5% | inactive: 71.9% | inactive: 99.7% | inactive: 101% | inactive: 113% | inactive: 99.2% | inactive: 116% | inactive: 113% | inactive: 121% | inactive: 99.6%
10 | CN(Cc1cccnc1)C(=O)COc1ccc(Cl)c(Cl)c1.O=[N+]([O-])c1cc([N+](=O)[O-])c(O)c([N+](=O)[O-])c1 | inactive: 105% | inactive: 91.5% | inactive: 90.4% | inactive: 102% | inactive: 102% | inactive: 97% | inactive: 108% | inactive: 109% | inactive: 101% | inactive: 116%
11 | CP(=O)(OCCCCl)N(CCCl)CCCl (configuration not stated) | inactive: 96.1% | inactive: 99.2% | inactive: 98.5% | inactive: 102% | inactive: 106% | inactive: 105% | inactive: 111% | inactive: 105% | inactive: 114% | –
12 | CN(C)Nc1c([N+](=O)[O-])cc([N+](=O)[O-])cc1[N+](=O)[O-] | inactive: 98.3% | inactive: 93.4% | inactive: 98.1% | inactive: 104% | inactive: 112% | inactive: 99.5% | inactive: 101% | inactive: 103% | inactive: 113% | inactive: 109%
13 | CP(=O)(OCCCl)N(CCCl)CCCl (configuration not stated) | inactive: 83.1% | inactive: 91.7% | inactive: 97.4% | inactive: 103% | inactive: 93.9% | inactive: 104% | inactive: 107% | inactive: 106% | inactive: 111% | –
14 | CCN(CC)CCS | inactive: 95.8% | inactive: 89.6% | inactive: 96.6% | inactive: 99.5% | inactive: 96% | inactive: 115% | inactive: 105% | inactive: 93.2% | inactive: 96.3% | –
15 | O=[N+]([O-])c1cc([N+](=O)[O-])c(O)c([N+](=O)[O-])c1.c1ccc(Cc2ccncc2)cc1 | inactive: 107% | inactive: 102% | inactive: 113% | inactive: 103% | inactive: 95.3% | inactive: 94.7% | inactive: 101% | inactive: 115% | inactive: 101% | inactive: 106%
16 | Cc1c([N+](=O)[O-])c(C)c([N+](=O)[O-])c(Nc2c([N+](=O)[O-])c(C)c([N+](=O)[O-])c(C)c2[N+](=O)[O-])c1[N+](=O)[O-] | active: -19% | inactive: 11% | active: -2.7% | active: 6.75% | inactive: 22.3% | active: -1.78% | active: -13.2% | inactive: 23.9% | active: -7.88% | active: 2.18%
17 | CC[N+](C)(CC)Cc1cc(Cc2ccccc2)ccc1OC(=O)N(C)C | inactive: 97.5% | inactive: 102% | inactive: 102% | inactive: 116% | inactive: 98% | inactive: 108% | inactive: 94.5% | inactive: 96.4% | inactive: 117% | inactive: 122%
18 | Cc1c([N+](=O)[O-])cc([N+](=O)[O-])c(Br)c1[N+](=O)[O-] | inactive: 24.6% | inactive: 28% | inactive: 83.2% | inactive: 51.3% | inactive: 120% | active: -67.2% | inactive: 117% | inactive: 66% | active: -95.4% | –
19 | Nc1cc([As](Cl)Cl)cc(N)c1O | inactive: 75.3% | inactive: 39.5% | inactive: 40% | inactive: 62.2% | inactive: 134% | inactive: 75% | inactive: 99.9% | inactive: 51.9% | inactive: 68.4% | –
20 | NC(=NCCN/C(N)=N/[N+](=O)[O-])N[N+](=O)[O-] | inactive: 103% | inactive: 108% | inactive: 104% | inactive: 98.9% | inactive: 114% | inactive: 112% | inactive: 100% | inactive: 131% | inactive: 110% | inactive: 92.2%
21 | COc1ccccc1-c1ccccn1.O=[N+]([O-])c1cc([N+](=O)[O-])c(O)c([N+](=O)[O-])c1 | inactive: 103% | inactive: 91% | inactive: 100% | inactive: 97.4% | inactive: 108% | inactive: 114% | inactive: 110% | inactive: 103% | inactive: 117% | inactive: 110%
22 | n1nc(-c2nn[nH]n2)n[nH]1 | inactive: 101% | inactive: 100% | inactive: 95.1% | inactive: 108% | inactive: 98.4% | inactive: 103% | inactive: 106% | inactive: 108% | inactive: 121% | inactive: 92.7%
23 | O=[N+]([O-])c1ccc(OP2(=O)COCCO2)cc1 (configuration not stated) | inactive: 91.5% | inactive: 79.8% | inactive: 101% | inactive: 120% | inactive: 101% | inactive: 102% | inactive: 112% | inactive: 109% | inactive: 112% | inactive: 133%
24 | O=C(O)C1(O)c2ccccc2-c2ccccc21 | inactive: 98% and inactive: 99% | inactive: 97.9% and inactive: 98.7% | inactive: 108% | inactive: 101% and inactive: 103% | inactive: 102% and inactive: 96.3% | inactive: 120% | inactive: 93.1% and inactive: 104% | inactive: 97.7% and inactive: 99.9% | inactive: 104% and inactive: 101% | inactive: 109% and inactive: 103%
25 | CN(CCCl)CCCCCCCl | inactive: 76% | inactive: 76.2% | inactive: 96.4% | inactive: 91.2% | inactive: 102% | inactive: 110% | inactive: 101% | inactive: 88.8% | inactive: 112% | –
26 | Nc1cc([N+](=O)[O-])cc([N+](=O)[O-])c1O | inactive: 104% and inactive: 96.1% | inactive: 97% and inactive: 102% | inactive: 111% and inactive: 95.2% | inactive: 104% and inactive: 101% | inactive: 96.3% and inactive: 101% | inactive: 103% and inactive: 106% | inactive: 107% and inactive: 102% | inactive: 123% and inactive: 110% | inactive: 110% and inactive: 102% | inactive: 171% and inactive: 107%
27 | CCN(CC)CCOC(=O)C(O)(c1cc(C)cc(C)c1)c1cc(C)cc(C)c1 | inactive: 100% | inactive: 97.6% | inactive: 98.1% | inactive: 89.2% | inactive: 106% | inactive: 109% | inactive: 93.1% | inactive: 97.6% | inactive: 108% | inactive: 88.4%
